Source: ChEMBL document CHEMBL4020816

The chains behind the UniProt entries cited, without tags or fusion partners.
UniProt P21554, whole entry: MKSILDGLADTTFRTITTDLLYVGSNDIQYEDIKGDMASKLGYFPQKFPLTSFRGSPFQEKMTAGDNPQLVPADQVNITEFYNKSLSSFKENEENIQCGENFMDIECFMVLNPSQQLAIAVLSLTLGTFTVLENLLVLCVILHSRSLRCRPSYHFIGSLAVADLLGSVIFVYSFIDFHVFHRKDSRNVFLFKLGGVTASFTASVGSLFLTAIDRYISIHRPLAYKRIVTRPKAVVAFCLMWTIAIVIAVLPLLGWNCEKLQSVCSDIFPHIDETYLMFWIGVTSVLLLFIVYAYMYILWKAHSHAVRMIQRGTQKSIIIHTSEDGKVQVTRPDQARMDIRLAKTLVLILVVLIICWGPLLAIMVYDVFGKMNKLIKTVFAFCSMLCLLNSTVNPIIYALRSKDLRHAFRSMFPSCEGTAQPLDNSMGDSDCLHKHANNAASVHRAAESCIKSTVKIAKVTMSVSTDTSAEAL

Assays:
Cannabinoid receptor 1 [1] = target: T1, Cannabinoid receptor 1 (Homo sapiens, UniProt P21554); experiment: Displacement of [3H]CP55940 from recombinant human CB1 receptor expressed in beta-galactosidase expressing CHOK1 cell membranes after 60 mins by scintillation spectrometry
Cannabinoid receptor 1 [2] = target: T1, Cannabinoid receptor 1; experiment: Displacement of [3H]CP55940 from recombinant human CB1 receptor expressed in beta-galactosidase expressing CHOK1 cell membranes assessed as kinetic rate index by measuring ratio of radioligand binding at 30 mins to 240 mins by scintillation spectrometry
Cannabinoid receptor 1 [3] = target: T1, Cannabinoid receptor 1; experiment: Antagonist activity at recombinant human CB1 receptor expressed in HEK293 cell membranes assessed as inhibition of CP55940-induced [35S]GTPgammaS binding preincubated for 1 hr followed by CP55940 addition and subsequent incubation with [35S]GTPgammaS measured after 30 mins by scintillation spectrometry; type: functional

`Cc1c(C(=O)NN2CCCCC2)nc(-c2ccc(Cl)cc2Cl)n1-c1ccc(OCc2ccccc2)cc1` gave a Ki (Cannabinoid receptor 1 [1]) of 6.28 nM, a Ratio (Cannabinoid receptor 1 [2]) of 0.9 and an IC50 (Cannabinoid receptor 1 [3]) of 20 nM.
